# Ab-14 heavy chain CDR variants: yeast mating affinities

From the AlphaSeq antibody data of Li et al. 2023 (doi:10.1038/s41467-023-39022-2), copy in the FLAb collection.

Binding partner: SARS-CoV-2 spike HR2 peptide, sequence PDVDLGDISGINAS.

Parent scFv Ab-14: VH joined to VL by three GGGGS repeats. Changes lie in the heavy chain CDRs alone.
VH: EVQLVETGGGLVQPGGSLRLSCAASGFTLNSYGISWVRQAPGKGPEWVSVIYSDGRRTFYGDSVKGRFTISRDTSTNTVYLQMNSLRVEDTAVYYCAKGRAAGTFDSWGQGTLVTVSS
VL: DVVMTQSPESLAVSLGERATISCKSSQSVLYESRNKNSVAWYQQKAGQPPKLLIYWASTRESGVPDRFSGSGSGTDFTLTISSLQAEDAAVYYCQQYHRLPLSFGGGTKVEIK

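The parent was found by panning a naive human phage display library on the peptide. The variants were designed computationally from a first round of random CDR variants and then made and measured. Group labels follow the data file (Ctrl: baseline library sampled from a position-specific scoring matrix, with some repeated check sequences; Rand: our label for a block that the file lists under HC and that is probably the random mutants of the ten best first-round binders; En: ensemble of fine-tuned language models; GP: Gaussian process model; GPLM: also part of the Gaussian process libraries; HC: hill climbing; Gen: genetic algorithm; Gibbs: Gibbs sampling; a sequence that several methods proposed may carry one label only). In AlphaSeq, yeast of one mating type display the scFv and yeast of the other type display the target. Mating (16 h, 30 °C) was followed by selection of diploids and sequencing of their barcodes. Read counts were normalised to the haploid input and turned into Kd by a linear fit to BCL2-family pairs of known affinity, for each replicate. Each pool was mated in six replicate cultures.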

Substitutions are numbered in sequence along the VH above, starting at 1 (not Kabat). This list holds designs with at most six substitutions. Numbers give log10(Kd / nM), so 0 is 1 nM and 3 is 1 µM. Smaller is tighter. A mean of the replicates is given; it leaves out those without a signal. A pair that was not seen in that replicate is written "nd"; this usually means weak binding, but a binder can also be missed. Some sequences occur more than once in the pool; their replicates are listed entry by entry, parted by semicolons.

* F27E/S53A/G61H [GP_HC] -> 0.29, 0.52, 0.72, 0.57, 0.44, 0.69 (mean 0.54)
* G26N/T28S/G61T/R100Q/A101T [GP_Gibbs] -> nd, nd, nd, nd, nd, nd
* N30E/R56E/G61I/A101R/T104E [Ctrl] -> nd, nd, nd, nd, nd, nd
* S53A/G61D/S63Q [Ctrl] -> 0.43, 0.58, 0.54, 0.42, 0.48, 0.47 (mean 0.49)
* T28S/S63P/R100K/A101Q [GP_Gibbs] -> 1.36, nd, 1.70, nd, 1.70, 1.53 (mean 1.57)
* T28V/S63N/R100Q/A101T [GP_Gibbs] -> 1.63, 2.43, 1.79, 0.84, 1.26, 2.25 (mean 1.70)
* R100N/S107L [Ctrl] -> 1.99, 1.49, 0.92, 0.76, 1.08, 0.78 (mean 1.17)
* R56W/G61S/R100W/A101V [GP_Gibbs] -> 1.83, 1.47, 1.22, 2.28, 0.81, 1.26 (mean 1.48)
* T28M/N30T/R100K [Ctrl] -> 2.20, nd, nd, 2.87, nd, nd (mean 2.53)
* S31D/F59Q/G61I/R100N [GPLM_HC] -> 0.70, 1.23, 0.84, 0.79, 1.59, 1.47 (mean 1.10)
* T28D/G61I/S63A/R100N [GP_Gen] -> 0.25, 0.35, -0.04, 0.00, 0.22, 0.31 (mean 0.18)
* T28A/S31E/R100Q [GPLM_Gibbs] -> 0.76, 0.71, 0.85, 0.95, 0.46, 0.88 (mean 0.77)
* G26K/T28S/G61A/A101E [GPLM_Gen] -> 0.55, 0.89, 0.73, 0.63, 0.62, 0.82 (mean 0.71)
* G26W/S31D/G61I [GP_HC] -> nd, nd, nd, nd, nd, nd
* T28E/R100K/A101T/S107T [GPLM_Gibbs] -> nd, nd, nd, nd, nd, 1.95
* T28S/S31E/S63Q/R100K [GP_Gen] -> -0.56, -0.24, -0.70, -0.26, 0.08, 0.02 (mean -0.28)
* T28E/S53A/R100Q/S107V [GPLM_Gibbs] -> 0.37, -0.06, -0.23, -0.25, -0.26, -0.36 (mean -0.13)
* T28H/R100Q/A101E [GP_Gen] -> nd, nd, nd, nd, nd, nd
* T28D/G61I/R100W [GP_Gen] -> 0.88, 0.86, 0.75, 0.81, 0.79, 0.84 (mean 0.82)
* S31D/R100E/G103A [Ctrl] -> nd, 1.17, nd, 1.25, 0.66, 1.33 (mean 1.10)
* G61T/R100Q/A101L/S107D [GP_HC] -> nd, 1.44, 2.16, 1.05, 1.92, 0.84 (mean 1.48)
* G61A/A101Q/S107T [GPLM_Gen] -> 0.43, 0.75, 0.06, 0.40, 0.50, -0.28 (mean 0.31)
* T28D/S53A/G99H/S107L [Ctrl] -> nd, nd, nd, nd, nd, nd
* T28N/S63N/A101S [GP_Gibbs] -> nd, nd, 2.55, 0.70, 1.21, nd (mean 1.48)
* T28S/S31D/G61S/A101T [GPLM_Gen] -> -0.39, -0.01, -0.25, -0.50, -0.57, -0.07 (mean -0.30)
* G26S/T28A/S31D/A101Q/A102T [Ctrl] -> nd, nd, nd, nd, nd, nd
* T28K/R100Q/A101L [GP_HC] -> nd, 1.35, nd, nd, nd, nd
* T28H/R100Q/A101T/S107R [GP_Gibbs] -> 1.63, 1.23, 2.17, 2.36, 3.41, 2.99 (mean 2.30)
* T28N/S107Y [Ctrl] -> nd, 1.69, 1.56, nd, 2.24, 2.26 (mean 1.94)
* D106S/S107H [Ctrl] -> 0.85, 0.59, 1.53, 1.55, 0.74, 0.95 (mean 1.04)
* S31D/R56K/G61I/D106W [GP_HC] -> nd, nd, nd, nd, nd, nd
* S63D/R100Q/S107V [GP_Gibbs] -> 1.15, 0.91, 1.68, 1.58, 1.17, 2.00 (mean 1.42)
* G61D/R100Q/A101L/S107V [GPLM_HC] -> 0.86, 0.17, 0.53, 0.46, 1.22, 0.86 (mean 0.69)
* T28D/G61T/S63R/R100E [GP_HC] -> 0.55, -0.05, 1.27, 0.66, 0.38, -0.16 (mean 0.44)
* T28K/G61S/R100T [GP_HC] -> 0.97, 1.07, 0.60, 0.61, 0.88, 0.72 (mean 0.81)
* S31Q/R56T/G61S/A101V [GPLM_HC] -> -0.93, -0.94, -0.57, -0.54, -0.79, -0.58 (mean -0.73)
* T28S/R100L/A101N [GP_Gen] -> nd, nd, nd, nd, nd, nd
* T28D/I34T/R57H/T104W/D106N [Rand] -> nd, nd, nd, nd, nd, nd
* T28S/G61V/V64T/A101Q [Ctrl] -> 2.30, nd, nd, nd, nd, nd
* L29C/S63D [Ctrl] -> nd, nd, nd, nd, nd, nd
* T28D/R56I/G61A [Ctrl] -> 0.38, 0.33, 0.32, 0.15, 0.28, 0.26 (mean 0.29)
* T28D/F59P/T104W/D106N [Rand] -> nd, nd, nd, nd, nd, nd
* N30Y/S31D/R57I/F59Q/G61I/D106C [Rand] -> nd, nd, nd, nd, nd, nd
* R100Q/A101E [Ctrl+GPLM_Gen] -> 2.47, 1.84, 0.54, 0.95, 0.76, 0.89; 0.96, 0.63, 0.91, 0.65, 0.79, 0.70 (mean 1.01)
* T28Q/A101T/S107V [GPLM_Gibbs] -> 0.75, 0.74, 1.01, 0.86, 0.72, 1.00 (mean 0.85)
* G26K/T28S/R56K/G61S/A101T [GP_Gibbs] -> 0.77, 0.44, 0.95, 0.55, 0.41, 1.08 (mean 0.70)
* L29M/S31K [Ctrl] -> nd, nd, nd, nd, nd, nd
* S31D/A101E/S107K [GPLM_HC] -> 1.81, nd, nd, 2.73, 2.09, 2.32 (mean 2.24)
* T28G/S31E/A101E/S107T [GPLM_Gibbs] -> -0.42, -0.52, -0.70, -0.84, -0.31, -0.86 (mean -0.61)
* T28D/S31E/S53A/G61Q/R100E [En_HC] -> 1.19, 0.41, 0.59, nd, 1.17, 1.89 (mean 1.05)
* T28S/G61S/R100Q/S107L [GPLM_Gen] -> 1.20, 1.25, 0.81, 0.80, 0.71, 1.36 (mean 1.02)

The last 7 entries again:

changes,group,log10 Kd (nM) by replicate,"mean, log10 nM"
T28Q/A101T/S107V,GPLM_Gibbs,"0.75, 0.74, 1.01, 0.86, 0.72, 1.00",0.85
G26K/T28S/R56K/G61S/A101T,GP_Gibbs,"0.77, 0.44, 0.95, 0.55, 0.41, 1.08",0.70
L29M/S31K,Ctrl,"nd, nd, nd, nd, nd, nd",nd
S31D/A101E/S107K,GPLM_HC,"1.81, nd, nd, 2.73, 2.09, 2.32",2.24
T28G/S31E/A101E/S107T,GPLM_Gibbs,"-0.42, -0.52, -0.70, -0.84, -0.31, -0.86",-0.61
T28D/S31E/S53A/G61Q/R100E,En_HC,"1.19, 0.41, 0.59, nd, 1.17, 1.89",1.05
T28S/G61S/R100Q/S107L,GPLM_Gen,"1.20, 1.25, 0.81, 0.80, 0.71, 1.36",1.02

In the paper, a design with two or fewer of six values counts as a poor binder. Nonspecific signal, from three strains lacking the peptide, appeared in 1% of pairings of all heavy chain designs, centred on 2.08 (5% of these signals below 0.84); values are not corrected for it. The range of this assay differs from that of the first round, and the authors advise against merging the two.